Tests used:
[1] = system: Phakopsora pachyrhizi; assay: Protective control of soybean rust on soybeans, inoculation 2 days after treatment (PHAKPA P2); assay type: in vivo; settings: soybean seedlings inoculated 2 days after treatment, strain with F129L in cytochrome b, % diseased leaf area, untreated controls usually higher than 85 %; for PHAKPA Disease level (%) P2 at 4 ppm: 4 ppm spray; for PHAKPA Disease level (%) P2 at 16 ppm: 16 ppm spray
[2] = system: Phakopsora pachyrhizi; assay: Protective control of soybean rust on soybeans, inoculation six days after treatment (PHAKPA P6); assay type: in vivo; settings: soybean seedlings inoculated six days after treatment, strain with F129L in cytochrome b, % diseased leaf area, untreated controls usually higher than 85 %; for PHAKPA Disease level (%) P6 at 4 ppm: 4 ppm spray; for PHAKPA Disease level (%) P6 at 16 ppm: 16 ppm spray

| SMILES | PHAKPA Disease level (%) P2 at 4 ppm [1] [%] | PHAKPA Disease level (%) P2 at 16 ppm [1] [%] | PHAKPA Disease level (%) P6 at 4 ppm [2] [%] | PHAKPA Disease level (%) P6 at 16 ppm [2] [%] |
| --- | --- | --- | --- | --- |
| CO/N=C(/C(=O)OC)c1cccc(C)c1CO/N=C(\C)c1ccc(C#CC2CC2)cn1 [Example 111] | 67 | 20 | 67 | 17 |
| CNC(=O)/C(=N/OC)c1cccc(C)c1CO/N=C(\C)c1ccc(C#CC2CC2)cn1 [Example 112] | 18 | 2 | 40 | 3 |
| CO/N=C(/C(=O)OC)c1cccc(C)c1CO/N=C(\C)c1cc(C(F)(F)F)ncn1 [Example 113, Methyl (2E)-2-methoxyimino-2-[3-methyl-2-[[(E)-1-[6-(trifluoromethyl)pyrimidin-4-yl]ethylideneamino]oxymethyl]phenyl]acetate] | 28 | 7 | 20 | 4 |
| CNC(=O)/C(=N/OC)c1cccc(C)c1CO/N=C(\C)c1csc(C(F)(F)F)n1 [Example 115] | 77 | 6 | 67 | 25 |
| C=Cc1cc(C(F)(F)F)cc(/C(C)=N/OCc2c(C)cccc2/C(=N\OC)C(=O)OC)n1 [Example 116, Methyl (2E)-2-methoxvimino-2-[3-methyl-2-[[(E)-1-[4-(trifluoromethyl)-6-vinyl-2-pyridyl]ethylideneamino]oxymethyl]phenyl]acetate] | 83 | 28 | 70 | 28 |
| CO/N=C(/C(=O)OC)c1cccc(C)c1CO/N=C(\C)c1cc(C(F)(F)F)nn1C [Example 117, Methyl (2E)-2-methoxyimino-2-[3-methyl-2-[[(E)-1-[2-methyl-5-(trifluoromethyl)pyrazol-3-yl]ethylideneamino]oxymethyl]phenyl]acetate] | 100 | 57 | 100 | 83 |
| CNC(=O)/C(=N/OC)c1cccc(C)c1CO/N=C(\C)c1cc(C(F)(F)F)nc(OC)n1 [Example 120] | 12 | 5 | 25 | 6 |
| CO/N=C(/C(=O)OC)c1cccc(C)c1CO/N=C(\C)c1ncc(C(F)(F)F)s1 [Example 123, Methyl (2E)-2-methoxyimino-2-[3-methyl-2-[[(E)-1-[5-(trifluoromethyl)thiazol-2-yl]-ethylideneamino]oxymethyl]phenyl]acetate] | 60 | 23 | 50 | 14 |
| CO/N=C(/C(=O)OC)c1cccc(C)c1CO/N=C(\C)c1cscn1 [Example 126] | 100 | 87 | 100 | 93 |
| CNC(=O)/C(=N/OC)c1cccc(C)c1CO/N=C(\C)c1cscn1 [Example 127] | 97 | 33 | 90 | 73 |
| CO/N=C(/C(=O)OC)c1cccc(C)c1CO/N=C(\C)c1nccs1 [Example 128] | 100 | 100 | 100 | 93 |
| CO/N=C(/C(=O)OC)c1cccc(C)c1CO/N=C(\C)c1ccccn1 [Example 129] | 90 | 76 | 78 | 78 |
| CO/N=C(/C(=O)OC)c1cccc(C)c1CO/N=C(\C)c1ccncc1 [Example 130] | 90 | 87 | 78 | 70 |
| CO/N=C(/C(=O)OC)c1cccc(C)c1CO/N=C(\C)c1cccnc1 [Example 131] | 90 | 60 | 82 | 40 |
| CNC(=O)/C(=N/OC)c1cccc(C)c1CO/N=C(\C)c1nccs1 [Example 133] | 75 | 42 | 85 | 60 |
| CNC(=O)/C(=N/OC)c1cccc(C)c1CO/N=C(\C)c1ccncc1 [Example 134] | 85 | 70 | 82 | 80 |
| CNC(=O)/C(=N/OC)c1cccc(C)c1CO/N=C(\C)c1cccnc1 [Example 135] | 19 | 0.8 | 43 | 11 |
| CO/N=C(/C(=O)OC)c1cccc(C)c1CO/N=C(\C)c1ncc(-c2cccc(F)c2)s1 [Example 139] | 100 | 90 | 90 | 87 |
| CNC(=O)/C(=N/OC)c1cccc(C)c1CO/N=C(\C)c1ncc(-c2cccc(F)c2)s1 [Example 140] | 100 | 100 | 93 | 83 |
| CNC(=O)/C(=N/OC)c1cccc(C)c1CO/N=C(\C)c1cnn(C)c1 [Example 142] | 100 | 100 | 100 | 100 |
| C=Cc1cnc(/C(C)=N/OCc2c(C)cccc2/C(=N\OC)C(=O)OC)s1 [Example 143] | 100 | 100 | 100 | 100 |
| C=Cc1cnc(/C(C)=N/OCc2c(C)cccc2/C(=N\OC)C(=O)NC)s1 [Example 144] | 83 | 63 | 97 | 83 |
| CO/N=C(/C(=O)OC)c1cccc(C)c1CO/N=C(\C)c1ncc(C)s1 [Example 147] | 100 | 87 | 100 | 100 |
| CNC(=O)/C(=N/OC)c1cccc(C)c1CO/N=C(\C)c1ncc(C)s1 [Example 148] | 67 | 20 | 90 | 60 |
| CO/N=C(/C(=O)OC)c1cccc(C)c1CO/N=C(/c1nccs1)C(F)(F)F [Example 149] | 70 | 4 | 100 | 67 |
| CO/N=C(/C(=O)OC)c1cccc(C)c1CO/N=C(\C)c1ncc(-c2cccc(C(F)(F)F)c2)s1 [Example 150] | 100 | 83 | 100 | 73 |
| CNC(=O)/C(=N/OC)c1cccc(C)c1CO/N=C(/c1nccs1)C(F)F [Example 154] | 100 | 33 | 100 | 90 |
| CO/N=C(/C(=O)OC)c1cccc(C)c1CO/N=C(\C)c1cnccc1C(F)(F)F [Example 155] | 100 | 100 | 100 | 100 |
| CNC(=O)/C(=N/OC)c1cccc(C)c1CO/N=C(\C)c1cnccc1C(F)(F)F [Example 156] | 100 | 83 | 100 | 100 |

From EP3970494A1 (priority 2020, dated 2022)
